Ab-95 light chain CDR variants: yeast mating affinities

Values reported by Engelhart et al. 2022, doi:10.1038/s41597-022-01779-4 (FLAb copy).

The target is the same throughout: PDVDLGDISGINAS, from the HR2 region of SARS-CoV-2 spike.

The variants keep the heavy chain, the linker and the frameworks of Ab-95 (scFv order VH, a 15-residue (Gly4Ser)3 linker, VL).
VH: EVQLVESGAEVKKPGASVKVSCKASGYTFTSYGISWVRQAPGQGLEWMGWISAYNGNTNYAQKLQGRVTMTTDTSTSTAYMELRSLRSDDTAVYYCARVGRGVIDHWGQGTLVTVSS
VL: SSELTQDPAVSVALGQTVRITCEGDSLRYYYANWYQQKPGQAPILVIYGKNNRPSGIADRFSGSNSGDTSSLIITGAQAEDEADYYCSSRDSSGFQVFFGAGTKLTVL

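AAYL52 was designed without a model: most single CDR substitutions and a random sample of double and triple ones. AlphaSeq pools MATa yeast showing the antibodies with MATalpha yeast showing the peptide. The frequency of each diploid, read from paired DNA barcodes, reflects how well the two displayed proteins bind. The ratio of observed to expected reads was calibrated, replicate by replicate, on BCL2-family standards whose Kd was known from biolayer interferometry. There are three technical replicates.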

Substitutions are numbered in sequence along the VL above, starting at 1 (not Kabat). All variants listed here change N51 of the VL, counted from its first residue. The Kd shown is the geometric mean over detected replicates; a lower Kd is a better binder. "nd" marks a missing value. The strain was present, yet no cells mated with the target were sequenced in any replicate, which points to weak or no binding. Entries are sorted by rising average, undetected variants last.

- D25G+N51G+N52Q -> 140 nM (3 of 3 replicates; controls 3 of 9)
- Y30D+N51E+S88C -> 240 nM (3 of 3 replicates; controls 2 of 9)
- D25N+K50A+N51K -> 360 nM (3 of 3 replicates; controls 1 of 9)
- G24T+L27K+N51S -> 460 nM (3 of 3 replicates; controls 2 of 9)
- A32P+G49H+N51T -> 540 nM (1 of 3 replicates; controls 0 of 9)
- Y30P+A32Q+N51E -> 550 nM (3 of 3 replicates; controls 2 of 9)
- G24C+Y29W+N51S -> 840 nM (1 of 3 replicates; controls 0 of 9)
- D25V+N51C+G94R -> 1.0 µM (1 of 3 replicates; controls 2 of 9)
- N51L+S55N -> 1.0 µM (3 of 3 replicates; controls 0 of 9)
- Y30R+N51T+S89E -> 1.5 µM (3 of 3 replicates; controls 2 of 9)
- D25F+N51E+R90T -> 1.7 µM (2 of 3 replicates; controls 3 of 9)
- N51C+S55P+F95P -> 2.2 µM (3 of 3 replicates; controls 5 of 9)
- D25L+N51P -> 3.0 µM (1 of 3 replicates; controls 4 of 9)
- S26M+Y29Q+N51D -> 3.1 µM (3 of 3 replicates; controls 1 of 9)
- N51R+G94N+F95Q -> 3.8 µM (1 of 3 replicates; controls 0 of 9)
- G24D+N51K+S88D -> 4.6 µM (1 of 3 replicates; controls 3 of 9)
- Y29D+N51C+V97N -> 4.6 µM (2 of 3 replicates; controls 3 of 9)
- L27Y+G49N+N51G -> 4.8 µM (3 of 3 replicates; controls 3 of 9)
- A32T+N51E+S89M -> 4.8 µM (2 of 3 replicates; controls 4 of 9)
- A32Y+N51R+R53V -> 7.7 µM (3 of 3 replicates; controls 5 of 9)
- Y29L+N51I+D91I -> 8.3 µM (2 of 3 replicates; controls 3 of 9)
- Y29P+N51E -> 9.8 µM (3 of 3 replicates; controls 1 of 9)
- N51T+S88Y+F95V -> 14 µM (1 of 3 replicates; controls 2 of 9)
- D25C+A32E+N51K -> 16 µM (2 of 3 replicates; controls 2 of 9)
- N51F -> 48 µM (2 of 3 replicates; controls 3 of 9)
- N51C -> 52 µM (2 of 3 replicates; controls 1 of 9)
- L27Y+N51T+G94L -> 53 µM (1 of 3 replicates; controls 4 of 9)
- S26M+N33V+N51P -> 53 µM (2 of 3 replicates; controls 5 of 9)
- N51P+Q96D -> 57 µM (2 of 3 replicates; controls 2 of 9)
- N33K+N51I+F98W -> 61 µM (1 of 3 replicates; controls 0 of 9)
- Y30K+N51T+V97K -> 160 µM (2 of 3 replicates; controls 4 of 9)
- S26D+N51I+Q96I -> nd (0 of 3 replicates; controls 2 of 9)
- D25S+N51E+D91Q -> nd (0 of 3 replicates; controls 1 of 9)
- A32V+G49S+N51T -> nd (0 of 3 replicates; controls 2 of 9)
- N51T+S92H -> nd (0 of 3 replicates; controls 1 of 9)
- L27A+G49K+N51L -> nd (0 of 3 replicates; controls 2 of 9)
- S26I+N51Y+P54W -> nd (0 of 3 replicates; controls 1 of 9)
- N33V+N51S -> nd (0 of 3 replicates; controls 4 of 9)
- R28W+N51W+S89H -> nd (0 of 3 replicates; controls 1 of 9)
- G49R+N51R+S93V -> nd (0 of 3 replicates; controls 3 of 9)
- E23F+N51S+P54I -> nd (0 of 3 replicates; controls 0 of 9)
- G49R+N51A+S55V -> nd (0 of 3 replicates; controls 1 of 9)
- L27W+N51P+P54N -> nd (0 of 3 replicates; controls 1 of 9)
- K50W+N51T+R53K -> nd (0 of 3 replicates; controls 0 of 9)

Repeated from above, the 5 best binders with a signal in all replicates:

changes	Kd	detected	signal with controls
D25G+N51G+N52Q	140 nM	3 of 3	3 of 9
Y30D+N51E+S88C	240 nM	3 of 3	2 of 9
D25N+K50A+N51K	360 nM	3 of 3	1 of 9
G24T+L27K+N51S	460 nM	3 of 3	2 of 9
Y30P+A32Q+N51E	550 nM	3 of 3	2 of 9

Empty control strains, which show no peptide, gave a signal in 28% of pairings with library AAYL52; the median was 8.2 µM and 95% of these signals were weaker than 800 nM. No background was subtracted. The control count says in how many pairings with the empty strains this scFv gave a signal.